Laboratory results reported in US7029878B2, “Melanin concentrating hormone receptor chimeric and fusion proteins” (Merck & Co., Inc., priority 2000, dated 2006).
pEC50: −log10 of the molar value.

Columns and labels:
Type in all cases: cell-based
[1] = molecular target: T1, mMCH1R-1-EGFP (Mus musculus, UniProt Q8JZL2); assay: aequorin bioluminescence, transiently transfected HEK293 Aequorin cells stimulated with human MCH; details: transient HEK293 Aequorin, FIG. 1
T1 construct: ID; NO; 11 (mouse MCH1R-linker-EGFP); 12 amino acid linker […]; expressed in transfected cells; host or cells: CHO (transient) and HEK293 Aequorin (transient)
Experimental: FIG. 1 illustrates aequorin assay results comparing a mouse MCH-R fusion with a human wild type MCH-R and a CMV-EGFP control.
(§1) Both HEK293 Aequorin (National Institutes of Health) and CHO mammalian cell lines were transiently transfected with the various MCH1R/GFP variant fusion constructs, as well as the appropriate control constructs. Transfection was performed using Lipofectamine 2000 (Gibco BRL) per the manufacturer recommended protocol. Approximately 48 hours after transfection cells were harvested, stimulated with various concentrations of human MCH, and assayed for either aequorin bioluminescence (HEK293 Aequorin cells) or cAMP production (CHO cells). Aequorin bioluminescence is a representative measure of intracellular Ca^2+ mobilization. cAMP production was measured with the Adenylyl Cyclase Activation FlashPlate Assay (NEN Life Science Products, Inc.).

[2] = molecular target: T2, Mouse MCH1R/EGFP direct fusion (Mus musculus, UniProt Q8JZL2); assay: cAMP production (FlashPlate), transiently transfected CHO cells stimulated with human MCH; details: transient CHO, Table 1
T2 construct: ID; NO; 12 (mouse MCH1R/EGFP direct fusion); expressed in transfected cells; host or cells: CHO (transient)
Experimental: as §1

[3] = molecular target: T3, Mouse MCH1R-1-EGFP (mouse MCH1R-linker-EGFP) (Mus musculus, UniProt Q8JZL2); assay: as above; details: transient CHO, Table 1
T3 construct: ID; NO; 11 (mouse MCH1R-linker-EGFP); 12 amino acid linker […]; expressed in transfected cells; host or cells: CHO (transient) and HEK293 Aequorin (transient)
Experimental: as §1

human MCH
EC50 compared with wild-type human short form receptor [1]: nearly identical to that of the wild-type human short form receptor | pEC50 [2]: 9.09 | pEC50 [3]: 8.49
